This is an account of results in patent publication US20070254882A1, “Sulfamide Derivatives and Pharmaceutical Composition for Upregulation of Lipid Metabolism Comprising Same” (CRYSTAL GENOMICS, INC., priority 2004, published 2007).

Protein sequences, listed by entry. Tags and fused reporters are not part of them. Residues count along the entry.
UniProt Q07869, 239-466 limits assumed: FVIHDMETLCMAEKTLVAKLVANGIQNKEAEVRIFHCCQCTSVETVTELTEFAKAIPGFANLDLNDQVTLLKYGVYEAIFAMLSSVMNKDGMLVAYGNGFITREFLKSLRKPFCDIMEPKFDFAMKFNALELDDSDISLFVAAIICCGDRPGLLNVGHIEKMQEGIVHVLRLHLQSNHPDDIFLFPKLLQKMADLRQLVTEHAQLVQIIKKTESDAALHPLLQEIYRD
UniProt Q07869, whole entry: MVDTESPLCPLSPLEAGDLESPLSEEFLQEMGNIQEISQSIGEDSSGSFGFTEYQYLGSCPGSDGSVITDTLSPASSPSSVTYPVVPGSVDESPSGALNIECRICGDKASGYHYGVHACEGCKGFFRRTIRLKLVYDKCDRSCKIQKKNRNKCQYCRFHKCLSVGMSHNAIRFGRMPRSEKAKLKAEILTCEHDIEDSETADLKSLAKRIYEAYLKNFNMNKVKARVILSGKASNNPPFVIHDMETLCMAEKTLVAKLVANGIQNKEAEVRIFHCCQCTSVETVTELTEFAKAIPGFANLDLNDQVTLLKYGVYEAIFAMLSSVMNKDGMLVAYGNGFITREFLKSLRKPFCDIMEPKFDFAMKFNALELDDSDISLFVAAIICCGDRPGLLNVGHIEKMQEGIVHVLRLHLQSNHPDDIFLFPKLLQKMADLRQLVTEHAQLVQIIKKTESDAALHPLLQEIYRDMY
UniProt P28702, whole entry partner: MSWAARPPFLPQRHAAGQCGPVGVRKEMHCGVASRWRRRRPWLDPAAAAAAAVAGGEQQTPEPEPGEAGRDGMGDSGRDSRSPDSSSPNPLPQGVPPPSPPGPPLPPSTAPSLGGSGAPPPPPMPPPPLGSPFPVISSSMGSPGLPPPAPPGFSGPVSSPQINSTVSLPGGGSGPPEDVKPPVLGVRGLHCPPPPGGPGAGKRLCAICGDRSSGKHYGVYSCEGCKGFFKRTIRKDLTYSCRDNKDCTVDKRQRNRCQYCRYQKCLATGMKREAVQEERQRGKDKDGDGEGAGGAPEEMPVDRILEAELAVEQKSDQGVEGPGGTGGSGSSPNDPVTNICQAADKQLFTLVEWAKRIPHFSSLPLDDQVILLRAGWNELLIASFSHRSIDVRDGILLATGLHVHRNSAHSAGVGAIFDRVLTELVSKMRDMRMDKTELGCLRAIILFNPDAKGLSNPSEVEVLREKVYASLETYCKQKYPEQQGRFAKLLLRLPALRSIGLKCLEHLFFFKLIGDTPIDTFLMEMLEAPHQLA

In assay [1] the target is T1, human PPAR α (Homo sapiens, UniProt Q07869). The assay is described as follows: Exogeneous PPAR α agonist assay (GAL4 DNA binding domain/PPAR α ligand binding domain, luciferase) in 293T cells. The arrangement: Activity at 25 μM Step 1 293T cell: scale not given here. The procedure: (§1) Step 1) Exogeneous PPAR α Agonist Assay
(§2) Cross-activation assay of the compounds of Examples 1 to 134 against human PPAR α was carried out using a DNA construct of PPAR α including its ligand binding domain and GAL4 DNA binding domain (Sher et al., Biochemistry 32, 5598-5604, 1993) to analyze whether any of the compounds binds to the ligand binding domain of PPAR α expressed by the construct to affect the PPAR α activity. When the GAL4 DNA binding domainm which is fused with PPAR α ligand binding domain, binds to UAS (upstream activation sequence) of firefly-luciferase, the luciferase is expressed. Therefore, the effect of each of the compounds of Examples on PPAR α activation can be evaluated by analyzing the activation of luciferase.
(§3) Specifically, 2×10^4 of HepG2 (ATCC HB-8065) or 293T cells (ATCC CRL-1573) were aliquotted into each well of a 96-well plate and cultured for overnight at 37° C. in a CO2 incubator (culture condition: DMEM, 10% FBS and 1% antibiotics).
(§4) The transformation of PPAR α DNA was traced as follows. […] The luminescence intensities of F-luciferase and R-luciferase were measured with MicroLumat Plus (Berthord Technology).

Another assay deals with full length human PPAR α (Homo sapiens, UniProt Q07869). Briefly: Endogeneous PPAR α agonist assay (full length human PPAR α, RXR, PPRE luciferase) in 293T cells. Particulars: read-out: EC50 (μM) Step 2 Endogenous gene activity, 48 hours. From the text: Step 2) Endogeneous PPAR α Agonist Assay
The procedure of Step 1 was repeated except for using a firefly-luciferase DNA construct containing Renilla-luciferase construct, full length human PPAR α, RXR (retinoid X receptor) and PPRE (peroxisome proliferator-responsive element) (Sher et al., Biochemistry 32, 5598-5604, 1993; and Fleischhauer et al., Hum Genet 90, 505-510, 1993) to transform 293T cells, to conduct endogenous PPAR CL agonist assay. Each of the compounds of Examples was used in such a treatment which lasted for 48 hours, and the luciferase activity of the resulting heterodimer, a R/R (endogenous binding partner of PPAR) bound to a full length PPAR CL with the compounds, was measured in accordance with the same method of Step 1.

The target of assay [2] is T1, human PPAR α. Briefly: Exogeneous PPAR α agonist assay (GAL4 DNA binding domain/PPAR α ligand binding domain, luciferase) in HepG2 cells. The following applies: read-out: EC50 (μM) Step 1 HepG2 cell, concentration at which activity increased by 50% over control. The procedure:
as §1, §2, §3, §4

On to `Cc1oc(-c2ccc(C(F)(F)F)cc2)nc1COc1cccc(CN(CC(=O)O)S(=O)(=O)NC(C)(C)C)c1`, for which, on human PPAR α [1] (25 μM compound, 48 hours, luciferase activity increase relative to the control), the “Activity at 25 μM Step 1 293T cell” value was 2. Besides, the EC50 at human PPAR α [1] (read-out: EC50 (μM) Step 1 293T cell, concentration at which activity increased by 50% over control) was found to be 0.2 µM; at full length human PPAR α it was 25 µM; on human PPAR α [2], 1 µM.
